The assay deals with Hepatic Lipase (HL). The assay is described as follows: HL activity in L-O2 hepatocytes (colorimetric kit). Type of assay: cell-based, human. The following applies: 50.0 μg/ml, normal 5.16 ± 0.46. On the procedure: The L-O2 human normal liver cells were cultured in routine way, various concentrations of FTZCE were respectively added after cells fusion, continuously cultured the cells for a certain time followed by collecting cells to prepare cell homogenates. Using LPL/HL detection kit (Nanjing Jiancheng Biotechnology Research Institute), the LPL/HL activity was detected by colorimetric method to research the effects of various composition of extracts from plants conbination on LPL activity and compare the enzyme activity of hepatocyte LPL/HL under the action of different concentrations of FTZEC. The gene expressions of hepatocyte LPL/HL were determined by RT-PCR method to observe the affects of FTZEC on the hepatocyte LPL/HL gene expression.

In turn, `CC(C)OC(=O)C(C)(C)Oc1ccc(C(=O)c2ccc(Cl)cc2)cc1` [Fenofibrate] returned an HL activity of 7.75 ± 1.92 g FFA/mL supernatant · h.

These data come from patent US8394431B2, “Composition of extracts from plants and the use thereof in prophylaxis or treatment of metabolism disorder of blood lipid” (priority 2008, dated 2013).
